Values quoted from earlier work in patent US6989159B2, “Pharmaceutical compositions containing lithium carbonate” (JDS Pharmaceuticals, LLC, priority 2000, dated 2006).

Conditions: in vivo

O=C([O-])[O-].[Li+].[Li+] [Lithium carbonate]
clearance relative to that of creatinine: about 20% | distribution volume: 0.7–0.9
